In PubChem BioAssay AID463075 (University of Pittsburgh Molecular Library Screening Center, 2010):
This is a selection; strong and weak results do not stand in their true shares. Activity calls are given as the source filed them.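 How the source made its calls: active means activation, meaning protection from cell death, of at least 50% relative to plate controls; inactive means activation below 50%.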

Test: inhibitors of TNF-alpha triggered necroptosis, primary screen, cell-based, Jurkat FADD-/-, single concentration (AID 463075);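 further: necroptosis triggered by 40 ng/mL TNF-alpha added together with compound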
Details: Jurkat FADD-/- TNF necroptosis rescue, ATP luminescence, 24 h; at 10 µM; active compounds read high; 0 = TNF only, 100 = no-TNF cells

| SMILES | activation (protection from cell death) |
| --- | --- |
| CCc1nc2c(n1)c1c(non1O)c1c2no[n+]1[O-] | inactive: -11.7% |
| O=C(O)c1ccccc1[As](=O)(O)O | inactive: 2.12% |
